Source: PMC10763724 (Molecular cancer therapeutics, 2019)

By UniProt entry, the sequences of proteins in these tests, tags left out. Where a name states a change or a piece, a line headed by the entry shows the natural chain unless it says otherwise.
UniProt P00352: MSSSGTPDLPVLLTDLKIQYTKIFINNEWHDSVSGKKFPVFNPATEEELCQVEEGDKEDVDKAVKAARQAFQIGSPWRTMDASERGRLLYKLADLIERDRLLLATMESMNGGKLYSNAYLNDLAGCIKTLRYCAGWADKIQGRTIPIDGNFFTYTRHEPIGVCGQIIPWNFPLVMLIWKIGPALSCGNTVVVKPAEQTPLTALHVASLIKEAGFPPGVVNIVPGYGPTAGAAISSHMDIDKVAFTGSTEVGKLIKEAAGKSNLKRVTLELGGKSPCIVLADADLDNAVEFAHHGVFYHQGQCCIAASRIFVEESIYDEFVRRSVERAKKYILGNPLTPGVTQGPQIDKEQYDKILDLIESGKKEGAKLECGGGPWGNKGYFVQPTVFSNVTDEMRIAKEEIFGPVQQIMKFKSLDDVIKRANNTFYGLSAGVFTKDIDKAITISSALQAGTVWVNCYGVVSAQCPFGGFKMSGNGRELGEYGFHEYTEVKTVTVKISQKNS

Tests used:
Assay type in all cases: biochemical
[1] = biological target: T1, ALDH3A1 (Homo sapiens, UniProt P30838); assay: ALDH3A1 isoform-specific enzyme assay; details: read-out: IC50s ALDH3A1; 4-nitrobenzaldehyde substrate, 15 minutes preincubation
T1 sequence (P30838 1-453): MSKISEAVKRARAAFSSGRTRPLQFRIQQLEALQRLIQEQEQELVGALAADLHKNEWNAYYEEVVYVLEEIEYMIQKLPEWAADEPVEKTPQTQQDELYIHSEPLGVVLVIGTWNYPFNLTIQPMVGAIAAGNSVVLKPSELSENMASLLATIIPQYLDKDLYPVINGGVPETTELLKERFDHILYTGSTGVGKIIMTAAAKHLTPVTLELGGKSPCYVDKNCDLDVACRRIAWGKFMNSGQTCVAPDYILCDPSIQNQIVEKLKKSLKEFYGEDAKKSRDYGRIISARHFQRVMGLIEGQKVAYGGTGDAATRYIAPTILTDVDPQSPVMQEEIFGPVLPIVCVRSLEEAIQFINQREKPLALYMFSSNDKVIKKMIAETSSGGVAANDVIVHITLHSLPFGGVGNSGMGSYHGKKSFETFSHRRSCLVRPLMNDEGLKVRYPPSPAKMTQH

[2] = biological target: ALDH1A1 (Homo sapiens, UniProt P00352); assay: ALDH1A1 isoform-specific enzyme assay; details: read-out: IC50s ALDH1A1; propionaldehyde substrate, 15 minutes preincubation
[3] = biological target: T2, ALDH2 (Homo sapiens, UniProt P05091); assay: ALDH2 isoform-specific enzyme assay; details: read-out: IC50s ALDH2; acetaldehyde substrate, 15 minutes preincubation
T2 sequence (P05091 18-517): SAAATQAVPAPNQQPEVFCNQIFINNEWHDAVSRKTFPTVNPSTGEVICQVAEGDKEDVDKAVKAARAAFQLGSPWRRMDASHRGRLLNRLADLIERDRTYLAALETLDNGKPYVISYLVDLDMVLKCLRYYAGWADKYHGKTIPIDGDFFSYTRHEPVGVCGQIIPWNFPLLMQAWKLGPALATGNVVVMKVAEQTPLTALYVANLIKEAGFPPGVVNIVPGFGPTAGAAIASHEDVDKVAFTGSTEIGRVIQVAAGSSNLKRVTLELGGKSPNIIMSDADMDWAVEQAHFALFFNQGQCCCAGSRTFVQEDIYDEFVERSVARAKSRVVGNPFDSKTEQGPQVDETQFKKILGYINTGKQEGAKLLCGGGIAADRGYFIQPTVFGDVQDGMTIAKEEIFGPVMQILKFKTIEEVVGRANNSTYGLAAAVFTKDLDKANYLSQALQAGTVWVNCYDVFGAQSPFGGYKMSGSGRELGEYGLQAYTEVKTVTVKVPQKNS

## CVT10216
[1]
  IC50: 2.72 µM
[2]
  IC50: 2.43 µM
[3]
  IC50: 0.053 ± 0.002 µM
